Results on 1 substance are retold here after publication PMC10528180, “Inhibitory Mechanism of Quercimeritrin as a Novel α-Glucosidase Selective Inhibitor” (Foods, 2023).

Protein sequences, listed by entry. Tags and fused reporters are not part of them. Lines headed by an entry give the natural chain unless they say otherwise; changes in a name come on top.
UniProt P53341: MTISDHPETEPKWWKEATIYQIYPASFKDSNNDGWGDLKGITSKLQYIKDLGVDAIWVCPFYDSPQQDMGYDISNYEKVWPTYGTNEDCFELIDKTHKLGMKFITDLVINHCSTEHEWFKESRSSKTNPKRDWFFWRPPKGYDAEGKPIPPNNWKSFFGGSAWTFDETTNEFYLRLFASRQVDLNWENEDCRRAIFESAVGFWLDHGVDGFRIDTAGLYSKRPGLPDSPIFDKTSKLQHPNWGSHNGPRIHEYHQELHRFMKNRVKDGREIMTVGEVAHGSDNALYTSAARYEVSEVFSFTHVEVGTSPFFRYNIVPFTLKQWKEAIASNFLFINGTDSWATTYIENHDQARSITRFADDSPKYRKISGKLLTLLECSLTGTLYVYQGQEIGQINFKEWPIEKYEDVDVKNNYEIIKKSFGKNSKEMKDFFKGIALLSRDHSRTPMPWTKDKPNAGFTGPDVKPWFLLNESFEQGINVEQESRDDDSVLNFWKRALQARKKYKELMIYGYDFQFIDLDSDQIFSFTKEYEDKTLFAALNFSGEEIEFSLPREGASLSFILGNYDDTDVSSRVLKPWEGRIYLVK

A word on the IC50: it is the concentration that gives 50% inhibition.

The target of experiment [1] is T1, α-glucosidase (Saccharomyces cerevisiae, UniProt P53341).
T1 construct: purchased Sigma-Aldrich Co
It counts as biochemical. The settings on record: read-out: α-glucosidase inhibition IC50±SEM. The procedure: (§1) The other reagents used in this experiment are analytically pure reagents purchased from Sigma-Aldrich Co. (St. Louis, MI, USA) unless specified otherwise.
The in vitro α-glucosidase activity assay was determined using spectrophotometry, as previously reported, with only minor modifications. In phosphate buffer with a pH of 6.8, 0.5 U/mL of α-glucosidase and the appropriate quantity of p-nitrophenyl-D-glucopyranoside (pNGP) were produced. […] Gradient dilution with a phosphate-buffered solution was used to create sample solutions of various concentrations. First, different concentrations of compound (10 μL), an enzyme solution (40 μL), and potassium phosphate buffer (100 μL) were pre-incubated in 96-well plates at 37 °C for 10 min.
(§2) The enzymatic inhibitory activity of the tested compounds was calculated using the following formula: Inhibition %=[(Abs control−Abs sample)/Abs control]×100
(§3) The IC50 values of the tested compounds were calculated using nonlinear fitting (logit method).

Experiment [2] has as its target T2, α-amylase (Sus scrofa, UniProt P00690).
T2 construct: α-amylase (EC 232-565-6, powder, ≥5 units/mg solid) isolated from porcine pancreas; purchased Sigma-Aldrich Co; host or cells: porcine pancreas
T2 sequence (P00690 16-511): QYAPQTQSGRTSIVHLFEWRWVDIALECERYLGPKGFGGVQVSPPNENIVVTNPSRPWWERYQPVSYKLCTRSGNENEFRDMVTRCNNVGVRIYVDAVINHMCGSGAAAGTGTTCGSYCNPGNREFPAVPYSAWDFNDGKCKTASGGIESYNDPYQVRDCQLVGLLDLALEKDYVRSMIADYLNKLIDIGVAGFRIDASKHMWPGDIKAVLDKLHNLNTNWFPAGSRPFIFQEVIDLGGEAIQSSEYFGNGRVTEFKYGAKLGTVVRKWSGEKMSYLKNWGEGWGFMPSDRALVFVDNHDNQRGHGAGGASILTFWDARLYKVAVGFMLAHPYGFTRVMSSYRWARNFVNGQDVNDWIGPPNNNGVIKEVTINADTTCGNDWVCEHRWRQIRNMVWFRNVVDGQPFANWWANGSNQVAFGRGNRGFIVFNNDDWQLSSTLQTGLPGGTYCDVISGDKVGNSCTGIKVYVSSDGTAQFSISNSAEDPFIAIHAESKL
Kind of experiment: In vitro α-amylase activity assay (G3-CNP, absorbance 405 nm). Format: biochemical, porcine. As to conditions: read-out: α-amylase inhibition IC50±SEM. As for the experimental part: as §1
The in vitro […] activity assay was determined using spectrophotometry, as previously reported, with only minor modifications. A total of 5 U/mL of α-amylase and the appropriate quantity of 2-chloro-4-nitrophenyl α-D-maltotrioside (G3-CNP) were produced. […] Gradient dilution with a phosphate-buffered solution was used to create sample solutions of various concentrations. First, different concentrations of compound (10 μL), an enzyme solution (40 μL), and potassium phosphate buffer (100 μL) were pre-incubated in 96-well plates at 37 °C for 10 min.
as §2, §3

Take Catechin gallate: the IC50 in experiment [1] amounted to 7.53 ± 0.55 µM; in experiment [2] it was 149 ± 33.6 µM.
